Our source for the Kd values is patent US20240218342A1, “SITE-SPECIFIC GLYCAN REMODELING OF LYSOSOMAL ENZYMES AND APPLICATIONS THEREOF” (priority 2021, published 2024).

This test deals with Recombinant human IGF-II R (CI-MPR) (human) (UniProt P11717). Nature of the test: SPR, CI-MPR immobilised, rhGAA as analyte.

Broadly, the Kd is the constant that tells how readily two partners part at equilibrium. With “Recombinant human acid α-glucosidase (rhGAA, Lumizyme), native (enzyme)”, the Kd was 14 nM.
